Key:
[1] = tested on: Hek293T, Jurkat, H1299 and SW780 cells; test: induction of apoptosis (immunodetection of PARP proteolysis / Caspase 3 degradation); conditions: 20 μM, 24 h and 48 h
ChoKβ mRNA = ChoKβ mRNA levels by quantitative PCR after MN58b; conditions: 20 μM, 24 and 48 hours; Hek293T, Jurkat, H1299 and SW780, all cases
ChoKα = ChoKα (Homo sapiens, UniProt P35790); test: sensitivity of ChoK isoforms to the chemical inhibitor MN58b
ChoKβ = ChoKβ (Homo sapiens, UniProt Q9Y259); test: as above; conditions: 20 μM MN58b
PEMT mRNA = PEMT mRNA levels by quantitative PCR after MN58b; conditions: 20 μM; Hek293T, Jurkat, H1299 and SW780, all cases
ChoK = conditions: xenotransplants of breast and colon cancer cells; cited from earlier work

Chains of the proteins cited; added tags and fusions are not shown. Lines headed by an entry give the natural chain unless they say otherwise; changes in a name come on top.
UniProt P35790, whole entry, looked up: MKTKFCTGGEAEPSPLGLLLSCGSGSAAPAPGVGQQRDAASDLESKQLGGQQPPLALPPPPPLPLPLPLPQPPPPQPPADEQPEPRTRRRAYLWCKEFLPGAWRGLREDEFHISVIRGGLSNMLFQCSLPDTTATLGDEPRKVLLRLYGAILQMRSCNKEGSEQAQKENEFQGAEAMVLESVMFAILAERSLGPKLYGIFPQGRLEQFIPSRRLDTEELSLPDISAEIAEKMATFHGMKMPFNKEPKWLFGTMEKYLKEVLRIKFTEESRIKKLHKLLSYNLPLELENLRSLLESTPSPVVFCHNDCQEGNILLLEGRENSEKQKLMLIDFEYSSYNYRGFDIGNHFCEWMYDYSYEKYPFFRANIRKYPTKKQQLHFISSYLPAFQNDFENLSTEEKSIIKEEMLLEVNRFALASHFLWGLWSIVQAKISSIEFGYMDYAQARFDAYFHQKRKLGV
UniProt Q9Y259: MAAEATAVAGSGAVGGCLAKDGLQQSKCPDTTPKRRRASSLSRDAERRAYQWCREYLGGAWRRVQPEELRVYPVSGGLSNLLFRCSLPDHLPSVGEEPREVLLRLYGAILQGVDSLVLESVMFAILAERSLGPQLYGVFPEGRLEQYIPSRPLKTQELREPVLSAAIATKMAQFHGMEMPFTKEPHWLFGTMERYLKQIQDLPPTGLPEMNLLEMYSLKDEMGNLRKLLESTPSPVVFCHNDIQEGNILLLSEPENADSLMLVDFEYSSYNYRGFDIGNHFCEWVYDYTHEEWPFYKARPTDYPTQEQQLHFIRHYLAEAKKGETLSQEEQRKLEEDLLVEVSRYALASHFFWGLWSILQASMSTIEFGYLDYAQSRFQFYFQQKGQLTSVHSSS

Compound: CN(C)c1cc[n+](Cc2ccc(CCCCc3ccc(C[n+]4ccc(N(C)C)cc4)cc3)cc2)cc1
- apoptosis (PARP and Caspase 3 degradation) [1]: Induction of apoptosis
- levels of ChoKβ mRNA in response to MN58b (ChoKβ mRNA): increase
- effect on ChoKα (ChoKα; 20 μM MN58b): inhibited
- sensitivity of ChoKα isoform versus ChoKβ isoform to the antiproliferative effect of MN58b (ChoKα; ChoKα compared with ChoKβ): markedly more sensitive
- effect on ChoKβ (ChoKβ): not significantly affected
- levels of PEMT mRNA in response to MN58b (PEMT mRNA): increase
- phosphomonoester levels affected after antitumor treatment (NMR) (ChoK): only the levels of PCho, but not of other phosphomonoesters, were affected

— patent US20110250179A1, “METHODS FOR TREATMENT AND DIAGNOSIS OF CANCER” (published 2011)
